The results in this text go back to publication PMC3760131 (Acta Crystallographica Section D: Biological Crystallography, 2013).

Sequences of proteins named here, by UniProt entry; tags and fusion partners are left off. Residues count along the entry.
UniProt P98170, 124-240: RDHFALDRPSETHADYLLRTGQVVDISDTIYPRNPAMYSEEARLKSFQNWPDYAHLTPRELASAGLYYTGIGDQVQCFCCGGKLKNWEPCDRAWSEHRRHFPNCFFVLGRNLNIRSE
UniProt P98170, 241-356: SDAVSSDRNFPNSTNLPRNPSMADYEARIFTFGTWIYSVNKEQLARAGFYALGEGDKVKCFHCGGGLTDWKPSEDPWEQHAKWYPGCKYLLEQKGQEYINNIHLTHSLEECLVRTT

The target of one experiment is T1, XIAP BIR2 (Homo sapiens, UniProt P98170).
T1 construct: 6×histidine-tagged BIR2 (amino acids 124–240) or BIR3 (amino acids 241–356) domain of the XIAP protein
Description: BIR2 TR-FRET assay (displacement of AVPI-derived peptide). It is filed as binding. The note with it: FRET-based displacement of AVPI-derived peptide from 6xHis BIR2 (124-240); Ki from IC50 by Cheng-Prusoff; read-out: BIR2 K i. Here is the method: (§1) Time-resolved fluorescence resonance energy transfer (TR-FRET) signals were measured 1 h later at room temperature. Compound potency was assessed at ten serially diluted concentrations. The percentage of inhibition at each concentration was determined to generate an IC50 value for each compound.

The target of a further experiment is T2, XIAP BIR3 (Homo sapiens, UniProt P98170).
T2 construct: 6×histidine-tagged BIR2 (amino acids 124–240) or BIR3 (amino acids 241–356) domain of the XIAP protein
Description: BIR3 TR-FRET assay (displacement of AVPI-derived peptide). The format is binding. The note with it: FRET-based displacement of AVPI-derived peptide from 6xHis BIR3 (241-356); Ki from IC50 by Cheng-Prusoff; read-out: BIR3 K i. Here is the method:
as §1

`CC[C@H](C)[C@H](NC(=O)[C@@H]1CCCN1C(=O)[C@H](CCCNC(=N)N)NC(=O)[C@H](C)N)C(=O)O` [ARPI]: the Ki at XIAP BIR2 worked out at 10.2 µM; at XIAP BIR3, 0.12 µM.

Turning to `CC[C@H](C)[C@H](NC(=O)[C@@H]1CCCN1C(=O)[C@@H](NC(=O)[C@@H](N)CO)C(C)C)C(=O)O` [SVPI], the Ki is 12 µM on XIAP BIR2 and 4.62 µM at XIAP BIR3.
